From ChEMBL document CHEMBL1158158, “Discovery of a potent and selective c-Kit inhibitor for the treatment of inflammatory diseases” (Bioorg Med Chem Lett, 2008) come the findings set out here.

The chains behind the UniProt entries cited, without tags or fusion partners.
UniProt P00519, whole entry: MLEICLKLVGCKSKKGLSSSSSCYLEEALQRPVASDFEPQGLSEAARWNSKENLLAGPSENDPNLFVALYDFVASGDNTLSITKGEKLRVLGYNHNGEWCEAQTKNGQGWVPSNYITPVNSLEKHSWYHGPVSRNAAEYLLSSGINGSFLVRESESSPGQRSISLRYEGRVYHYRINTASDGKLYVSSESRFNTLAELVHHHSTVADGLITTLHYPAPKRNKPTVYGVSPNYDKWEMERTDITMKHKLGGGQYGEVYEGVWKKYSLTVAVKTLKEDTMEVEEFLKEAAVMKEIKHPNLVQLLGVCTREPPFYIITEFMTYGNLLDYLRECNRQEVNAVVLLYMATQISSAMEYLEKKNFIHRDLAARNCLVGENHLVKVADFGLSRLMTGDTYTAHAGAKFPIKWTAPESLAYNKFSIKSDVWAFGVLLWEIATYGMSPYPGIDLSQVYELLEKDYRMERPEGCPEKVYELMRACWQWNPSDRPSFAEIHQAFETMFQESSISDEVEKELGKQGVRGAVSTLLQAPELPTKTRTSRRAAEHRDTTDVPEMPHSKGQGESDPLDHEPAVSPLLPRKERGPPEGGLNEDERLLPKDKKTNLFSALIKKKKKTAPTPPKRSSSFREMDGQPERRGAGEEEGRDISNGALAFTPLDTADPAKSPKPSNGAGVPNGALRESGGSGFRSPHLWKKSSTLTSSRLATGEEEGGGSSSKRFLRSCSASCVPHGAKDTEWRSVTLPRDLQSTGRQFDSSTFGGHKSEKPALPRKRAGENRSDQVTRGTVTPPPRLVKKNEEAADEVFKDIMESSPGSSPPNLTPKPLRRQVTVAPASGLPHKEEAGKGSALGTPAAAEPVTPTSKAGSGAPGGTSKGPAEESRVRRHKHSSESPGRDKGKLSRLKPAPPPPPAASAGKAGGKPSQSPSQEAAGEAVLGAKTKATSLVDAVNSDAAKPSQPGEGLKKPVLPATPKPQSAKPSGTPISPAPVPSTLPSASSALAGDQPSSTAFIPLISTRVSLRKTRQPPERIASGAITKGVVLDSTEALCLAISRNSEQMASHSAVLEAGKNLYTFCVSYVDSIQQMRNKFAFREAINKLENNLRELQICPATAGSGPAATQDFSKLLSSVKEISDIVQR

This assay deals with Tyrosine-protein kinase ABL1 (Homo sapiens, UniProt P00519).

Each structure is given as a SMILES string.

As to `Cc1ccc(NC(=O)c2cccc(C(F)(F)F)c2)cc1C(=O)Nc1cncnc1`, half-maximal inhibition (IC50) required 240 nM.
